Values of other authors, collected in patent US12201630B2 (Alar Pharmaceuticals Inc., priority 2018, dated 2025).

Conditions: transdermal delivery through skin sample, in vitro diffusion

valeroyl-naltrexone
Increase in naltrexone cumulative amount versus naltrexone: eight-fold
